# Results from US20120101169A1, “METHODS OF PROVIDING ANTICOAGULATION EFFECTS IN SUBJECTS” (Penwest Pharmaceuticals Co., priority 2010, published 2012).
# Legend:
# coagulation [1] = assay: 4 week rat study
# coagulation [2] = assay: 4 week dog study
# fibrinogen (factor I) = assay: Extended coagulation biomarker panel: factor I; conditions: in vivo
# [3] = system: coagulation (PT, INR, aPTT); assay: Basic coagulation panel (PT, INR, aPTT) and coagulation safety (Example 5)
compound,measurement,setting,value
"CC1=C(C)C(=O)C(CC[C@](C)(O)CCC[C@H](C)CCC[C@H](C)CCCC(C)C)=C(C)C1=O [ATQ, alpha-tocopherolquinone]",Effect on coagulation,coagulation [1],appeared to have an effect on coagulation
same,Effect on coagulation,coagulation [2],appeared to have an effect on coagulation
same,Effect on fibrinogen (factor I) concentrations,fibrinogen (factor I),did not appear to affect
same,Subjects with INR more than two times the normal level (discontinued),[3]; 0.67 g TID group,3 of 8
same,Intensity (grade) of maximum increase in INR,[3]; 0.75 g BID,Grade 2 (“Grade 2” refers to an INR value of 1.65 to 2.2 in a subject)
same,Intensity (grade) of increase in INR,[3]; multiple daily administration of 2-g/day (0.67 g TID),Grade 3 (“Grade 3” refers to an INR value greater than 2.2 in a subject)
same,Intensity (grade) of increase in INR,[3]; single daily doses of 3-g ATQ,Grade 2 (“Grade 2” refers to an INR value of 1.65 to 2.2 in a subject)
